Test results: patent US20070117840A1, “Receptor antagonist” (priority 2004, published 2007)

Chains of the proteins cited; added tags and fusions are not shown. Lines headed by an entry give the natural chain unless they say otherwise; changes in a name come on top.
UniProt Q9GZQ6: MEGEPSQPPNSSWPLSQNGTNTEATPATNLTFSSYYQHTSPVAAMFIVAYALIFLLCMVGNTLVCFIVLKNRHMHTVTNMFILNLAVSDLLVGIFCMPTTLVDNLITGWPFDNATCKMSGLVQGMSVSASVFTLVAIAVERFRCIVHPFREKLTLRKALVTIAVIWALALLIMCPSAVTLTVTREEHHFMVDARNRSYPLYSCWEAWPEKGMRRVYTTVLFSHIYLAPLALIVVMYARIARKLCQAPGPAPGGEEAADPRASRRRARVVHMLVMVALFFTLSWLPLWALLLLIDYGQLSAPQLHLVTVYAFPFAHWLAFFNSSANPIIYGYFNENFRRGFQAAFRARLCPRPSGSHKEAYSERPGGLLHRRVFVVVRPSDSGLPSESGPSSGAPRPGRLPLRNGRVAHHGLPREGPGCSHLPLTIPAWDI

Target: T1, human-type OT7T022 (Homo sapiens, UniProt Q9GZQ6)
T1 construct: expressed in transfected cells; host or cells: CHO cells (membrane fraction)
Test: Binding inhibiting activity using human-type OT7T022-expressing CHO cell (125I-Y-RFRP-3)
Conditions: compared with endogenous human-type RFRP-3 (hRFRP-3-28)
Method: Assessment of Binding Inhibiting Activity of Test Compound Using Human-Type OT7T022-Expressing CHO Cell
(1) Preparation of Iodine-Labeled Entity of Human-Type RFRP-3 (Y-RFRP-3)
A part thereof was 1/100 diluted, radioactivity was measured with a γ-counter, and the remaining authentic product was distributed, which was stored at −30° C.
(2) Assessment of Binding Inhibiting Activity
To a 96-well microplate were added 1 μg of a membrane fraction, a compound and Y-RFRP-3 labeled with ^125I, which had been diluted with a reaction buffer (50 mM Tris-HCl, 5 mM EDTA, 0.1% BSA, 0.5 mM PMSF, 20 μg/ml leupeptin, 0.1 μg/ml pepstatin A, 4 μg/ml E-64, 10 mM MgCl2, pH 7.5), to 100 pM to react them at room temperature for 1.5 hours. For measuring non-specific binding, non-labeled Y-RFRP-3 was further added to […]. Then, a membrane fraction was transferred to a unifilter GF/C (Perkin Elmer) by filtering the reaction solution using a cell harvester (Perkin Elmer), and this was washed with a cooled 50 mM Tris buffer (pH 7.5) five times. The filter was dried, Microsinti (Packard) was added to the filter, and radioactivity was measured with Topcount (Packard).
A binding inhibiting rate (IC50 value) of a test compound is shown in [Table 1].

Val-Pro-Asn-Leu-Pro-Gln-Arg-Phe-amide [hRFRP-3-8, reference compound]
binding inhibiting activity for human-type OT7T022-expressing CHO cell: equivalent to that of endogenous human-type RFRP-3 (hRFRP-3-28)
